These results are taken from BindingDB's records for doi:10.1016/j.bmcl.2006.08.107 (Johnson & Johnson Pharmaceutical, 2006).

Sequences of proteins named here, by UniProt entry; tags and fusion partners are left off.
UniProt O08775, whole entry: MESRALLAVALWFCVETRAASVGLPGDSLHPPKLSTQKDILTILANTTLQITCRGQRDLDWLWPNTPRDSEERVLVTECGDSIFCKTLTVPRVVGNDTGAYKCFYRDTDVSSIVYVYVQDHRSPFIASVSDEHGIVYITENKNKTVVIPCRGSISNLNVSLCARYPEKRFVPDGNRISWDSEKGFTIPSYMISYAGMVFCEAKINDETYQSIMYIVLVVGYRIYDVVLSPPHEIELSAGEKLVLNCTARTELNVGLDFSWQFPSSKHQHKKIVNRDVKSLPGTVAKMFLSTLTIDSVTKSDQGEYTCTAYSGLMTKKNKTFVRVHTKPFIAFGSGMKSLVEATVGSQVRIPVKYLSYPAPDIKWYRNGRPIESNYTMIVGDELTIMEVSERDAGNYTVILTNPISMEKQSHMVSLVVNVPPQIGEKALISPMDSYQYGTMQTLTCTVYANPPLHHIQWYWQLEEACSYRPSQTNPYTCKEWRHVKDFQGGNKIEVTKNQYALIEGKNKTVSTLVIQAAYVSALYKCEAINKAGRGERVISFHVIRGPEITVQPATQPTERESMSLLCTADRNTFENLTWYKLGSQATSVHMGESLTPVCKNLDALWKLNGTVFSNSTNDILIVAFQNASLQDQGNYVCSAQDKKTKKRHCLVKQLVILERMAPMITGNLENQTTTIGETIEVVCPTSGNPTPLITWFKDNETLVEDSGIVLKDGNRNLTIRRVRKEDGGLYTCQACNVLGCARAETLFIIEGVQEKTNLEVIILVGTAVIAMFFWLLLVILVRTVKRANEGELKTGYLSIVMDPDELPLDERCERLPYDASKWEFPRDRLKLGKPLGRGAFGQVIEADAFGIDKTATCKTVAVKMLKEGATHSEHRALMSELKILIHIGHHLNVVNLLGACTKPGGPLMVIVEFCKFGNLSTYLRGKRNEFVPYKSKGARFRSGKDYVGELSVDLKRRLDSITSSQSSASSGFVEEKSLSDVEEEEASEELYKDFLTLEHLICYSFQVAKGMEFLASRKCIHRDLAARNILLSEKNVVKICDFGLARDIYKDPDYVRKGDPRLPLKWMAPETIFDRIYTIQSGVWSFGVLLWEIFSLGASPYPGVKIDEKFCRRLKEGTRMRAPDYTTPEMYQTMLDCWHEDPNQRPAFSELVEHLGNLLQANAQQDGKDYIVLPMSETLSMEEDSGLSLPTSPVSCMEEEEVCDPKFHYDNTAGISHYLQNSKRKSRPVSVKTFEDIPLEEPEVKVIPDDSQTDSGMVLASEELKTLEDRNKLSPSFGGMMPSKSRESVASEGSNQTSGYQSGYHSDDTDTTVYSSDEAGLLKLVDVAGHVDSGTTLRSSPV

The target in this assay is Vascular endothelial growth factor receptor 2 (Rattus norvegicus, UniProt O08775). The experiment in a line: Kinase Inhibition Assay. The following applies: pH 8; 30 °C. How it is done:
The enzyme was assayed with a biotinylated peptide substrate and test compounds in the presence of 5 uM ATP/[gamma-33P]ATP in a streptavidin coated FlashPlate (Perkin-Elmer, Boston, MA). […] Linear regression analysis of the percent of inhibition by the test compound was used to calculate IC50 values.
In general, IC50 refers to the concentration at which inhibition is half-maximal. `Cc1cc2c(F)c(Oc3ncnc(N)c3/C=N/OCCCN(C)C)ccc2[nH]1` [5-[(1E)-{[3-(dimethylamino)propoxy]imino}methyl]-6-[(4-fluoro-2-methyl-1H-indol-5-yl)oxy]pyrimidin-4-amine] came in with a 50% inhibitory concentration (IC50) of 0.101 µM.

`Cc1cc2c(F)c(Oc3ncnc(N)c3/C=N/OCCN(C)C)ccc2[nH]1` [5-[(1E)-{[2-(dimethylamino)ethoxy]imino}methyl]-6-[(4-fluoro-2-methyl-1H-indol-5-yl)oxy]pyrimidin-4-amine] returned an IC50 of 0.187 µM.

As to `C=CCO/N=C/c1c(N)ncnc1Oc1ccc2[nH]c(C)cc2c1F` [6-[(4-fluoro-2-methyl-1H-indol-5-yl)oxy]-5-[(1E)-[(prop-2-en-1-yloxy)imino]methyl]pyrimidin-4-amine], the half-inhibitory concentration (IC50) turned out to be 0.052 µM.

`C#CCO/N=C/c1c(N)ncnc1Oc1ccc2[nH]c(C)cc2c1F` [6-[(4-fluoro-2-methyl-1H-indol-5-yl)oxy]-5-[(1E)-[(prop-2-yn-1-yloxy)imino]methyl]pyrimidin-4-amine] returned an IC50 of 0.052 µM.
